The results in this text go back to patent US20210332024A1, “MODULATORS OF PIN1 ACTIVITY AND USES THEREOF” (Yeda Research and Development Co. Ltd., priority 2019, published 2021).

Protein sequences, listed by entry. Tags and fused reporters are not part of them. Residues count along the entry.
UniProt Q13526, whole entry: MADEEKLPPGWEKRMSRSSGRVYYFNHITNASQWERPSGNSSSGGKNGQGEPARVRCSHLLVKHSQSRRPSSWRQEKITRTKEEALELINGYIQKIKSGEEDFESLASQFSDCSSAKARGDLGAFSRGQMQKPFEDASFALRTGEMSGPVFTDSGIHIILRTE
UniProt Q13526, 52-163 limits assumed: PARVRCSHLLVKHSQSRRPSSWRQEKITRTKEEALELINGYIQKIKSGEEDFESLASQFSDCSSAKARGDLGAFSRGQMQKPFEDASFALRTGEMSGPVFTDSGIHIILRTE

Assay [1] in a line: Thiol reactivity assay (DTNB). Conditions: 200 μM compound, pH 7.4, 37° C. How it is done:
50 μM DTNB (dithionitrobenzoic acid) was incubated with 200 μM TCEP (tris(2-carboxytehyl)phosphine) in 20 mM sodium phosphate buffer (pH 7.4) with 150 mM NaCl, for 5 minutes at room temperature, in order to obtain TNB^2− (thionitrobenzoate dianion). 200 μM compounds were subsequently added to the TNB^2−, followed by immediate UV absorbance measurement at 412 nm (at 37° C.). The UV absorbance was acquired every 15 minutes for 7 hours. The assay was performed in a 384-well plate using a Spark™ 10M plate reader (Tecan). Background absorbance of compounds was subtracted by measuring the absorbance at 412 nm of each compound under the same conditions without DTNB. Compounds were measured in triplicates. The data was fitted to a second order reaction equation such that the rate constant k is the slope of ln([A][B0]/[B][A0]), where [A0] and [B0] are the initial concentrations of the compound (200 μM) and TNB^2− (100 μM) respectively, and [A] and [B] are the remaining concentrations as a function of time, as determined from the spectrometric measurement. Linear regression using Prism® software was performed to fit the rate against the first four hours of measurements. […]

Another assay addresses GST-Pin1 (Homo sapiens, UniProt Q13526). Nature of the assay: Fluorescence polarization (FP) competition assay. Conditions: read-out: Ki (apparent), competition with fluorescein-labeled peptide, 250 nM GST-Pin1. The protocol: Binding affinity to Pin1 was determined using a fluorescence polarization assay to assess competition with an N-terminal fluorescein-labeled peptide (Bth-D-phosThr-Pip-Nal), which was obtained from JPT Peptide Technologies and Proteintech Group. The indicated concentrations of candidate compound were pre-incubated for 12 hours at 4° C. with a solution containing 250 nM glutathione S-transferase (GST)-Pin1, 5 nM of fluorescein-labeled peptide probe, 10 μg/ml bovine serum albumin, 0.01% Tween-20 and 1 mM DTT (dithiothreitol) in a buffer of 10 mM HEPES, 10 mM NaCl and 1% glycerol (pH 7.4). Measurements of FP were performed in black 384-well plates (Corning) using an EnVision™ reader. Apparent Ki values (under the tested conditions) obtained from the FP assay results were derived from the Kenakin Ki equation:
Kenakin Ki=(Lb)(EC50)(Kd)/(Lo)(Ro)+Lb(Ro−Lo+Lb−Kd) […]
Covalent labeling of Pin1 was confirmed to translate into enzyme inhibition via a fluorescence polarization (FP) competition assay using a FITC-labeled substrate mimetic peptide inhibitor, as well as a chymotrypsin-coupled PPIase assay, using procedures described in Wei et al. [Nat Med 2015, 21:457-466]. […]
For orientation: Fluorescence polarisation rises when a labelled molecule tumbles more slowly, as on binding a larger partner.

In the next assay the target is catalytic domain of Pin1 (Homo sapiens, UniProt Q13526). Nature of the assay: Intact protein LC/MS labeling of Pin1. As to conditions: 2 μM Pin1 with 2 μM test compound for 1 hour at room temperature. The protocol: 993 compounds were transferred to a 384-well plate working copy by combining 0.5 μl of 20 mM stock solution of four or five compounds per well. The catalytic domain of Pin1 (2 μM) in 20 mM Tris, 75 mM NaCl, pH 7.5 was incubated with 200 μM for each compound and moderately shaken for 24 hours at 4° C. The reaction was stopped by the addition of formic acid to 0.4% (v/v) final concentration.
Liquid chromatography/mass spectroscopy runs were performed on an Acquity™ UPLC® H-class system (Waters) in positive ion mode using electrospray ionization (ESI). UPLC separation was performed on a C4 column (300 Å, 1.7 μM, […]). The column was held at 40° C., and the autosampler at 10° C. […]
For the screening 2 μl of each of the 448 click products as 50 μM DMSO stocks were transferred into a 384-well plate working plate. […] The mixtures were analyzed by liquid chromatography/mass spectroscopy analogously to the electrophile library incubations described herein. Hits were retrospectively analyzed by liquid chromatography/mass spectroscopy (LC-MS) to ensure reaction completion.
For each measured well, processed peaks were searched to match the mass of unlabeled protein or common small adducts of the unlabeled protein, which were found in the control sample or labeled protein. […] Data was analyzed using a python script for processing the MaxEnt-deconvoluted spectra. […]

On to `O=C(CCl)N(CC1(C(F)(F)F)CC1)C1CCS(=O)(=O)C1` (stereo not shown), for which, in assay [1], the “Reactivity Log k” value is −6.47 and the Reactivity k was 3.42e-07 M⁻¹ s⁻¹. Further, at GST-Pin1, the Ki is 411 nM. The “Labeling [%]” value on catalytic domain of Pin1 stood at 46%.
